The results in this text go back to ChEMBL document CHEMBL3875174, “Further investigation of Paprotrain: Towards the conception of selective and multi-targeted CNS kinase inhibitors” (Eur J Med Chem, 2016).

Protein sequences, listed by entry. Tags and fused reporters are not part of them.
UniProt Q00535, whole entry: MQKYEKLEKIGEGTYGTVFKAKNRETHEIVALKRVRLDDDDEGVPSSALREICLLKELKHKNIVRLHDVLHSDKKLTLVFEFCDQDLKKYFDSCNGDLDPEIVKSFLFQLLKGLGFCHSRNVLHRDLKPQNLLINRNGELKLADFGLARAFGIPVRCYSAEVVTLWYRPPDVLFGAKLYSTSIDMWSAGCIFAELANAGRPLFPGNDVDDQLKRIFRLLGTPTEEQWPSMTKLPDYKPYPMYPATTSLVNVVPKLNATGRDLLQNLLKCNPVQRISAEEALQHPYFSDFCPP

In the assay the target is Cyclin-dependent kinase 5/CDK5 activator 1 (Homo sapiens, UniProt Q00535). Format: protein-complex assay.

By IC50 is commonly meant the concentration needed to halve the response being measured.

Compound `COc1ccc2c(c1)[nH]c1c(C)nccc12` [HARMINE] had an IC50 greater than 10 µM.
